Reference: patent publication US11186592B2, “Thiazolopyridine derivatives as adenosine receptor antagonists” (MERCK PATENT GMBH, priority 2017, dated 2021)

Chains of the proteins cited; added tags and fusions are not shown. Lines headed by an entry give the natural chain unless they say otherwise; changes in a name come on top.
UniProt P30542, whole entry: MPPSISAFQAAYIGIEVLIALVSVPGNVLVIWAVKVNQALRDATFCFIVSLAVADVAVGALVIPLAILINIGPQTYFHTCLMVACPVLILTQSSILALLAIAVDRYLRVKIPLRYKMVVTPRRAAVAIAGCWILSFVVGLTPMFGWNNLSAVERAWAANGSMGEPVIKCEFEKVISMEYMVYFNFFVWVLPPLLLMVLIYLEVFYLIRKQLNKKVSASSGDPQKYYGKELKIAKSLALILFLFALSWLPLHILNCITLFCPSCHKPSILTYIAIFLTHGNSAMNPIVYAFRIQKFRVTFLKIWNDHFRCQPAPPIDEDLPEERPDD
UniProt P29275, whole entry: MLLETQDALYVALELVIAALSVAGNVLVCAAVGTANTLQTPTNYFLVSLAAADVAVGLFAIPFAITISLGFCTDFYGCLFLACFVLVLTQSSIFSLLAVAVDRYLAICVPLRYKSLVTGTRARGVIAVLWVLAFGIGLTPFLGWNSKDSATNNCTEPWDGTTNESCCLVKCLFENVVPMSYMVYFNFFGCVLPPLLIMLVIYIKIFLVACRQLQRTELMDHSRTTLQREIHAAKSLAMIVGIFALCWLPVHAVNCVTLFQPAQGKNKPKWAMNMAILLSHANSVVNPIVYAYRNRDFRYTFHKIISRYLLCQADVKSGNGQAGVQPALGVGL

Columns and labels:
human A1 receptor = human A1 receptor (Homo sapiens, UniProt P30542); experiment: cAMP (HTRF) functional assay, recombinant CHO cells expressing human A1 receptor, forskolin + agonist CPA; conditions: read-out: Functional A1 receptor activity, CHO, cAMP, IC50
human A2B receptor = human A2B receptor (Homo sapiens, UniProt P29275); experiment: cAMP (HTRF) functional assay, recombinant HEK293 cells expressing human A2B receptor, agonist NECA; type: cell-based; conditions: read-out: Functional A2B receptor activity, HEK293, cAMP, IC50
human A2A receptor = human A2A receptor (Homo sapiens, UniProt P29274); experiment: cAMP (HTRF) functional assay, recombinant HEK293 cells expressing human A2A receptor, agonist NECA; conditions: read-out: Functional A2A receptor activity, HEK293, cAMP, IC50

| Structure (SMILES) | IC50 (human A1 receptor) [nM] | IC50 (human A2B receptor) [nM] | IC50 (human A2A receptor) [nM] |
| --- | --- | --- | --- |
| COc1ncc(C2CCOCC2)c2sc(NC(=O)c3ccc(C(=O)N(C)C)nc3)nc12 | > 1000 | < 100 | < 100 |
| COc1ncc(-c2cccnc2)c2sc(NC(=O)N3CCC4(CCOCC4)C3)nc12 | < 1000 | < 100 | < 100 |
